Values quoted from earlier work as cited in US10183918B2, “Oxa-azaspiro compounds having activity against pain” (LABORATORIOS DEL DR. ESTEVE S.A., priority 2015, dated 2019).

Sequences of proteins named here, by UniProt entry; tags and fusion partners are left off.
UniProt Q99720, whole entry: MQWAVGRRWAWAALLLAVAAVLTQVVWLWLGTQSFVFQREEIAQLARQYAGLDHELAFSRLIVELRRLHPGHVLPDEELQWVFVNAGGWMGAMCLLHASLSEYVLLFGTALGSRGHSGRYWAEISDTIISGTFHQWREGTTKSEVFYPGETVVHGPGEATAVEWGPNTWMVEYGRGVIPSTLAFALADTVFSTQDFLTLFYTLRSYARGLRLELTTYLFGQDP

Biological target: sigma-1 (σ1) site (Homo sapiens, UniProt Q99720)
Settings: result in words, background; cited from earlier work

(+)SKF-10047
affinity for the sigma-1 (σ1) site: nanomolar affinity
